Data from patent US7090985B2, “Methods for the identification of agents for the treatment of seizures, neurological diseases, endocrinopathies and hormonal diseases” (UCB, S.A., priority 2002, dated 2006).
Entries after “also recorded” stand apart in the source; their conditions may differ.

Sequences of proteins named here, by UniProt entry; tags and fusion partners are left off.
UniProt Q02563, whole entry: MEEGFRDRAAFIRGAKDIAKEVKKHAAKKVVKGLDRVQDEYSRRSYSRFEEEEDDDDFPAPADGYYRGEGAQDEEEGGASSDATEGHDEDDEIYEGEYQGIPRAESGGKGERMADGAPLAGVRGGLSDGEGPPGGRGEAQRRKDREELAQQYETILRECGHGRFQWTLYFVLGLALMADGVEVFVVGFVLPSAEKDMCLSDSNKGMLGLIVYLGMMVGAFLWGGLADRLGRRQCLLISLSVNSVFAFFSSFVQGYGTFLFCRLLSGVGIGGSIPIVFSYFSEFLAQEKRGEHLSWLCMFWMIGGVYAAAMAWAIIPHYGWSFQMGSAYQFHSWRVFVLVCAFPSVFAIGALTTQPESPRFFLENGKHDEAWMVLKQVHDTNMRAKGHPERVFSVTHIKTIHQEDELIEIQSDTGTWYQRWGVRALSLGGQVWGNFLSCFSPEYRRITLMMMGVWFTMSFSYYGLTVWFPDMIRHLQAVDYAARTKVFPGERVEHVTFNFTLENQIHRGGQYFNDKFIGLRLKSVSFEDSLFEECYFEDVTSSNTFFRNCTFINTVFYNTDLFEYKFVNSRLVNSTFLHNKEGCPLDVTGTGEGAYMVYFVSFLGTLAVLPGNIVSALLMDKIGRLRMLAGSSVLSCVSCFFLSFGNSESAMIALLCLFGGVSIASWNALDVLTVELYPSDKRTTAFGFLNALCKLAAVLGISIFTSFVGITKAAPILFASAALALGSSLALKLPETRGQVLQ

Target: T1, LBS (Rattus norvegicus, UniProt Q02563)
T1 construct: from tissue; host or cells: rat brain (crude membranes; 25 µm brain slices for autoradiography)
Assay: Autoradiography of [3H]ucb 30889 binding on rat brain sections
Conditions: unlabeled levetiracetam
Method: To identify and characterize the LBS in situ, ^[3H]ucb 30889 was used to map the LBS within the brain and to study both its cellular and subcellular distribution. […] Binding assays with rat brain membranes and various neuronal cell lines were performed under similar conditions. […] For photolabeling, membranes were incubated with […] ^[3H]ucb 30889 for 120 min at 4° C. in the same buffer, followed by irradiation with UV-light for 30 min.

## CC[C@@H](C(N)=O)N1CCCC1=O [levetiracetam, (S)-α-ethyl-2-oxo-1-pyrrolidine acetamide]
  inhibition of [3H]ucb 30889 binding: concentration dependent inhibition; also recorded: can be inhibited
